BindingDB's records for doi:10.1016/j.bmcl.2003.08.064 (Abbott Laboratories, 2003)

Target: T1, Tyrosine-protein phosphatase non-receptor type 1 [1-298] (Homo sapiens, UniProt P18031)
T1 construct: 1-298
T1 sequence (P18031 whole entry): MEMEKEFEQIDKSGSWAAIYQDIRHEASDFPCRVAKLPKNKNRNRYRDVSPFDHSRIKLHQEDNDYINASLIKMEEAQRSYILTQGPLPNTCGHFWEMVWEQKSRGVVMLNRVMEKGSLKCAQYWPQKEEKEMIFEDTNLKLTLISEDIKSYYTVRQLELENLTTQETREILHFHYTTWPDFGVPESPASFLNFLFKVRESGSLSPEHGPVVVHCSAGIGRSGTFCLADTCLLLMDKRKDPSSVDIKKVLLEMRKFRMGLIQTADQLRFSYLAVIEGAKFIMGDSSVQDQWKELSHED
Test: PTP1B and TCPTP Inhibition Assay
Settings: pH 7.5; 22 °C

- Ki: 18 µM
SMILES: CCc1cc(CC(NC(C)=O)C(=O)NCCCCOc2cccc(O)c2C(=O)OC)ccc1N(C(=O)C(=O)O)c1ccccc1C(=O)O (stereo unspecified)
